{"sequences": {"note": "Chains of the proteins cited; added tags and fusions are not shown. Residues count along the entry.", "UniProt P22303, 32-614": "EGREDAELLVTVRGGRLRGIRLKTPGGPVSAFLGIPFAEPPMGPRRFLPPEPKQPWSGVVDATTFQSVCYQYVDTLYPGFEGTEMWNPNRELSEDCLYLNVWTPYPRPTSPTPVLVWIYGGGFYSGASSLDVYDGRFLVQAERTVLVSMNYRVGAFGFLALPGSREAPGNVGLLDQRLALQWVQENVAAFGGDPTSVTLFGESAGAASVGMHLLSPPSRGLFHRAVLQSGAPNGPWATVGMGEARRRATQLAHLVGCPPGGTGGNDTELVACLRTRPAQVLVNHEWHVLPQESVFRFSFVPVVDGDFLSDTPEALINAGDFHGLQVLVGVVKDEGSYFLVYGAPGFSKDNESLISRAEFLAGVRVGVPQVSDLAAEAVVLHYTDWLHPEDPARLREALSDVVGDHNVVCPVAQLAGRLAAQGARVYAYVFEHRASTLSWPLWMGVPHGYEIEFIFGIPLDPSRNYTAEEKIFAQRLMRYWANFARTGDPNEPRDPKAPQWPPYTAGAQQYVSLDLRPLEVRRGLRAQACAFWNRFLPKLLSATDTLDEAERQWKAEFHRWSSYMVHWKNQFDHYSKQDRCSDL", "UniProt P06213, 28-1382": "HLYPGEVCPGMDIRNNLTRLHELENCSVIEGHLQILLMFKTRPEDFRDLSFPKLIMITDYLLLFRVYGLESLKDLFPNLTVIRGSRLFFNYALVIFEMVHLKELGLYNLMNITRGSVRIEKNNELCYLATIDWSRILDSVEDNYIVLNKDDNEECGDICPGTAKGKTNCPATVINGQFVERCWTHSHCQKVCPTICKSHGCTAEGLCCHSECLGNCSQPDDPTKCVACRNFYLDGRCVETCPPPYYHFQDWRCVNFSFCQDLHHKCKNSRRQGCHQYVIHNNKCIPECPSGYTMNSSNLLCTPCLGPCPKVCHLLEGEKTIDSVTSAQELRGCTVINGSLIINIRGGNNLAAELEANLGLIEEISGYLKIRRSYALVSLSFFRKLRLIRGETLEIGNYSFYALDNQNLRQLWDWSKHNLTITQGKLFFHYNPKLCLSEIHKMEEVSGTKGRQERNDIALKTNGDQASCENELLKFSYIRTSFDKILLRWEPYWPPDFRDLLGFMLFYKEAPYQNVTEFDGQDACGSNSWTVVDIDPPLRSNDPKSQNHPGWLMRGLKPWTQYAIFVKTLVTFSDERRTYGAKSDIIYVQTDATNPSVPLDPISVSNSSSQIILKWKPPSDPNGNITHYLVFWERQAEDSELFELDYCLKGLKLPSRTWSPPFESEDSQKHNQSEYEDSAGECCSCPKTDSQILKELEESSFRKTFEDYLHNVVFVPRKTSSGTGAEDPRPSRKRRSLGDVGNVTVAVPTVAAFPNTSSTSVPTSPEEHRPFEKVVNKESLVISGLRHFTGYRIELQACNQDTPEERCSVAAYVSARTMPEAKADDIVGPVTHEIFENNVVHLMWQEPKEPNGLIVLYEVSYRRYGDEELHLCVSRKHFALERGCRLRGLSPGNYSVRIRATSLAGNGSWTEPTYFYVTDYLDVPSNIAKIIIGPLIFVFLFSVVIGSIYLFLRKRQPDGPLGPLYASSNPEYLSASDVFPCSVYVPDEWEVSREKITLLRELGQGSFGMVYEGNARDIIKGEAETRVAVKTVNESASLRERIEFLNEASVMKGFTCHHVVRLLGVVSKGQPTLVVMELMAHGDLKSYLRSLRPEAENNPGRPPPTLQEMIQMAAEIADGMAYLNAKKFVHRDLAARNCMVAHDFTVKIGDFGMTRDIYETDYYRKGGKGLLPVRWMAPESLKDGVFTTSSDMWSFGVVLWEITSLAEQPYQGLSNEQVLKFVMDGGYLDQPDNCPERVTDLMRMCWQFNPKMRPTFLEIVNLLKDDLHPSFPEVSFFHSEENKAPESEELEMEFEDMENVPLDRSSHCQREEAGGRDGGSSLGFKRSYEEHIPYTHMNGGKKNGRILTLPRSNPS"}, "source": "paper doi:10.1101/2025.06.17.660082v1", "about": "(bioRxiv, 2025)", "key": {"[1]": {"molecular_target": "acetylcholinesterase (AChE) (Homo sapiens, UniProt P22303)", "assay": "Functional and binding panel 87 assays: acetylcholinesterase", "assay_type": "biochemical"}, "hMADS cells": {"tested_on": "hMADS cells", "assay": "mRNA expression by RT-qPCR in hMADS", "assay_type": "cell-based, human"}, "3T3-L1 cells": {"tested_on": "3T3-L1 cells", "assay": "Insulin signalling", "assay_type": "cell-based, mouse", "details": "10 nM insulin"}, "[2]": {"details": "artificial 3D BBB system and BBB in mice following intranasal delivery; cited from earlier work"}, "white hMADS": {"tested_on": "white hMADS", "assay": "Seahorse oxygen consumption", "assay_type": "cell-based, human"}, "LRP1": {"tested_on": "LRP1", "assay": "Surface plasmon resonance, LRP1 to SP16", "assay_type": "binding", "details": "Supplementary Fig. 7b-7e"}, "white hMADS cells": {"tested_on": "white hMADS cells", "assay": "Lipolysis assay", "assay_type": "cell-based, human"}, "[3]": {"molecular_target": "insulin receptor (INSR) kinase (Homo sapiens, UniProt P06213)", "assay": "Functional and binding panel 87 assays: IRK", "assay_type": "biochemical", "details": "read-out: inhibition of control specific binding"}, "DIO mice": {"tested_on": "DIO mice", "assay": "Acute treatment of DIO mice, plasma parameters and ex vivo tissue analysis", "assay_type": "in vivo, mouse"}, "[4]": {"tested_on": "CRE-Luc2P empty cells (no GIPR receptor overexpression)", "assay": "CRE-Luc2P reporter assay, empty cells without receptor overexpression", "assay_type": "cell-based"}, "[5]": {"tested_on": "insulin receptor signaling pathway in hMADS", "assay": "Insulin signalling", "assay_type": "cell-based, human"}, "[6]": {"details": "30 µM, 10 nM insulin, 15 min + 15 min"}}}
{"smiles": "CCCC[C@H](NC(=O)[C@H](CC(C)C)NC(=O)[C@H](Cc1ccccc1)NC(=O)[C@@H](NC(=O)[C@H](Cc1ccccc1)NC(=O)[C@@H]1CCCN1C(=O)[C@H](CCCCN)NC(=O)[C@H](CC(N)=O)NC(=O)[C@H](Cc1ccccc1)NC(=O)[C@H](CCCCN)NC(=O)[C@@H](NC(C)=O)C(C)C)C(C)C)C(=O)N[C@H](C(=O)N[C@@H](CCC(=O)O)C(=O)N[C@@H](CCC(N)=O)C(=O)N[C@@H](CC(N)=O)C(=O)N[C@H](C(=O)N[C@@H](CCCCN)C(N)=O)[C@@H](C)O)[C@@H](C)CC", "note": "[SP16]", "values": [{"measurement": "inhibition at 10 µM", "setting": "[1]", "result": 79.9, "unit": "%"}, {"measurement": "PPARG1A expression", "setting": "hMADS cells; 4 h, 10 µM", "result": "significant upregulation"}, {"measurement": "UCP1 mRNA levels", "setting": "hMADS cells; 4 h treatment", "result": "unchanged expression"}, {"measurement": "expression of FASN", "setting": "hMADS cells; in the presence of 10 nM insulin, 24 h", "result": "significantly lower"}, {"measurement": "inhibition of pINSR and pAKT in mouse adipocytes", "setting": "3T3-L1 cells", "result": "less pronounced inhibition"}, {"measurement": "passage of blood-brain barrier", "setting": "[2]", "result": "demonstrated to traverse"}, {"measurement": "proton leak, SP16 vs SP16 NC", "setting": "white hMADS; acute treatment, 10 µM, white hMADS", "result": "does not significantly differ"}, {"measurement": "OCR after 24-h and 3 x 24-h treatment", "setting": "white hMADS; hMADS", "result": "does not result in an increase in OCR"}, {"measurement": "fatty acid oxidation test, OCR vs SP16 NC", "setting": "white hMADS; with palmitate-BSA", "result": "no significant difference"}, {"measurement": "binding to LRP1 by SPR", "setting": "LRP1", "result": "could confirm"}, {"measurement": "FFA release in hMADS treated with GIPR siRNA vs siNC", "setting": "white hMADS cells; GIPR knockdown approximately 40%", "result": "significantly reduced"}, {"measurement": "lipolytic phenotype after β-adrenergic receptor antagonism with propranolol", "setting": "white hMADS cells; hMADS pretreated with propranolol", "result": "not blocked by propranolol"}, {"measurement": "involvement of LRP1 in lipolysis", "setting": "white hMADS cells; hMADS, LRP antagonist (RAP) and LRP1 siRNA knockdown", "result": "does not induce lipolysis through LRP1"}, {"measurement": "FFA release after pretreatment with adenylyl cyclase inhibitor SQ22536", "setting": "white hMADS cells; white hMADS", "result": "inhibited"}, {"measurement": "inhibition at 10 µM", "setting": "[3]", "result": 69.3, "unit": "%"}, {"measurement": "plasma FFA compared to vehicle", "setting": "DIO mice; 15-min treatment, i.p.", "result": "higher level of plasma FFA"}, {"measurement": "plasma leptin compared to vehicle", "setting": "DIO mice; 15-min treatment, i.p.", "result": "lower leptin level"}, {"measurement": "FFA, glycerol and cAMP in eWAT ex vivo", "setting": "DIO mice; 15 min after i.p.", "result": "trend for elevated levels"}, {"measurement": "pAKT in eWAT", "setting": "DIO mice; 15 min after i.p.", "result": "significant increase"}, {"measurement": "FFA, glycerol, cAMP and pAKT in iWAT, iBAT and the liver", "setting": "DIO mice; at the tested dose", "result": "failed to significantly affect"}, {"measurement": "cAMP induction on empty cells", "setting": "[4]", "result": "no cAMP induction"}, {"measurement": "inhibitory effect on pINSR/pAKT at 100 nM insulin", "setting": "[5]", "result": "diminished"}, {"measurement": "inhibition of pINSR and pAKT", "setting": "[5]; 10 µM, 10 nM insulin", "result": "does not exhibit any inhibition"}, {"measurement": "inhibition of pAKT compared to SP16 NC", "setting": "[5]; [6]", "result": "approximately 70%"}, {"measurement": "inhibition of pINSR compared to SP16 NC", "setting": "[5]; [6]", "result": "approximately 70%"}, {"measurement": "phosphorylation of AKT under basal conditions", "setting": "[5]; absence of insulin", "result": "does not modulate"}]}
